## Apparent affinities of Ab-95 variants for a coronavirus HR2 peptide

Reference: Engelhart et al. 2022, doi:10.1038/s41597-022-01779-4. File: FLAb, binding data.

Target peptide (SARS-CoV-2 spike, HR2 region): PDVDLGDISGINAS

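The parent was found by panning a naive human phage display library on the peptide. Variants in AAYL52 differ from the parent at up to three CDR positions; double and triple changes were sampled at random. AlphaSeq pools MATa yeast showing the antibodies with MATalpha yeast showing the peptide. The frequency of each diploid, read from paired DNA barcodes, reflects how well the two displayed proteins bind. A regression on co-assayed BCL2-family reference pairs converts the normalised counts of each replicate to an apparent Kd. There are three technical replicates.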

Ab-95 is the parent antibody, in scFv form: VH, then a (GGGGS)3 linker, then VL. The heavy chain is unchanged in all variants.
VH: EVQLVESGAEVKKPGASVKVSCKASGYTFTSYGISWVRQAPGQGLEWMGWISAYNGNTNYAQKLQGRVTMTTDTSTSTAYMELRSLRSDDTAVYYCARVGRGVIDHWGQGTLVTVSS
VL: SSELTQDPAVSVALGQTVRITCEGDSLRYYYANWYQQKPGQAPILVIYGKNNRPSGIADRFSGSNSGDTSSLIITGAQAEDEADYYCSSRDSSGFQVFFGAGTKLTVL

Positions count from residue 1 of the parent VL; G24H puts H in place of G. Every variant below is changed at G24 of the VL (sequential numbering). Each Kd is an estimate from the mating assay, the geometric mean of the replicates in which the pair was seen; lower is stronger. "nd" marks a missing value. The strain was present, yet no cells mated with the target were sequenced in any replicate, which points to weak or no binding. Entries are sorted by rising average, undetected variants last.

Variant G24H+Y31H+N52M showed 81 nM (3 of 3 replicates).
Variant G24S+R28P+A32Y showed 220 nM (3 of 3 replicates).
Variant G24C+D25H+S26Q showed 290 nM (3 of 3 replicates).
Variant G24R+A32P+F98A showed 440 nM (3 of 3 replicates).
Variant E23P+G24D+S55A showed 600 nM (2 of 3 replicates).
Variant G24N+Y30R+G94F showed 770 nM (3 of 3 replicates).
Variant G24Y+Y30V+D91A showed 1.7 µM (3 of 3 replicates).
Variant G24E+P54C+Q96F showed 1.8 µM (1 of 3 replicates).
Variant E23V+G24D+D91P showed 2.1 µM (3 of 3 replicates).
Variant G24V+S55D+S89G showed 2.2 µM (3 of 3 replicates).
Variant G24C+S26K+S92C showed 2.3 µM (1 of 3 replicates).
Variant G24L+N52Y+V97K showed 3.0 µM (1 of 3 replicates).
Variant G24R showed 3.1 µM (1 of 3 replicates).
Variant G24H+A32D+N51M showed 4.2 µM (1 of 3 replicates).
Variant G24S+R28D+V97E showed 4.9 µM (2 of 3 replicates).
Variant G24E+R53H+F98L showed 7.0 µM (1 of 3 replicates).
Variant G24Q+N33E+D91Q showed 7.8 µM (2 of 3 replicates).
Variant G24I+Y31M+F95L showed 7.9 µM (1 of 3 replicates).
Variant G24C+R53V+Q96I showed 8.1 µM (1 of 3 replicates).
Variant G24M+S88W+D91V showed 8.7 µM (3 of 3 replicates).
Variant G24P+R28W+Q96R showed 17 µM (2 of 3 replicates).
Variant G24P+A32Q+G94A showed 17 µM (3 of 3 replicates).
Variant G24R+D25R+V97N showed 17 µM (1 of 3 replicates).
Variant G24P+Y30C+N51I showed 18 µM (2 of 3 replicates).
Variant E23V+G24D+R53H showed 30 µM (2 of 3 replicates).
Variant G24Q+N52G+R53Y showed 31 µM (2 of 3 replicates).
Variant G24H+N51Q+P54S showed 40 µM (1 of 3 replicates).
Variant G24K+N51S+G94D showed 63 µM (1 of 3 replicates).
Variant G24R+Y31R+G94I showed 100 µM (1 of 3 replicates).
Variant G24R+G49H showed nd (0 of 3 replicates).
Variant G24H+R53E+S92V showed nd (0 of 3 replicates).
Variant G24D+P54N+G94W showed nd (0 of 3 replicates).
Variant G24K+N33D+K50Y showed nd (0 of 3 replicates).
Variant G24N+K50M+N52L showed nd (0 of 3 replicates).

For reference, 3 entries of the list once more:

changes	Kd (apparent)	replicates with signal
G24V+S55D+S89G	2.2 µM	3 of 3
E23P+G24D+S55A	600 nM	2 of 3
E23V+G24D+R53H	30 µM	2 of 3

Three control strains display no target. For library AAYL52, 28% of the pairings with them gave a signal, with a median of 8.2 µM and one signal in twenty below 800 nM, so weak values seen in few replicates may be background.